{"sequences": {"note": "The chains behind the UniProt entries cited, without tags or fusion partners. Residues count along the entry.", "UniProt P43220, 24-463": "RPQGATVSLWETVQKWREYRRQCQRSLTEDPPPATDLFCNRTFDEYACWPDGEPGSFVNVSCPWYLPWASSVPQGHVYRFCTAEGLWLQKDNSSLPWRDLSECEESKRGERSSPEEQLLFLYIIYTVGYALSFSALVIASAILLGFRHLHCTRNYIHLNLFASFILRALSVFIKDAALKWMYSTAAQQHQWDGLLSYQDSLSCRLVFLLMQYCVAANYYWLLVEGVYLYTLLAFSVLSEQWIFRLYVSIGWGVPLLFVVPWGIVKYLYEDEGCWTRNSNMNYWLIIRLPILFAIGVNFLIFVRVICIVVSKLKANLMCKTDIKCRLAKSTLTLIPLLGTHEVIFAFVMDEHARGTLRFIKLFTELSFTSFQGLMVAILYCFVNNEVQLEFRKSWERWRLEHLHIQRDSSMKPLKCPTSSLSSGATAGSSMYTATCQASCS"}, "source": "patent US20080009019A1", "about": "“HIGH THROUGHPUT METHOD FOR SCREENING CANDIDATE COMPOUNDS FOR BIOLOGICAL ACTIVITY” (SmithKline Beecham Corporation, priority 2001, published 2008)", "target": "human glucagon-like peptide-1 (GLP-1) receptor (Homo sapiens, UniProt P43220)", "assay": "Agarose lawn reporter assay, CHO-6xCRE-luc+ cells expressing GLP-1 receptor", "type": "cell-based", "settings": "approximately 10 nl of 5×10^−4 M to 1.5×10^−6 M peptide solution on lawn by HDR pin tool; 4 hours at 37° C.; FIGS. 6A-6B"}
{"substance": "glucagon-like peptide-1 [GLP-1]", "values": [{"measurement": "concentration-response curve of luminescence activity", "value": "concentration-response curve of luminescence activity was only observed when peptide was applied to the cell line expressing the appropriate receptor"}]}
